Results from patent US20150267232A1, “IN VIVO AND IN VITRO CARBENE INSERTION AND NITRENE TRANSFER REACTIONS CATALYZED BY HEME ENZYMES” (California Institute of Technology, priority 2012, published 2015).

Amino acid sequences for entries named in this document (tags omitted). Residues count along the entry.
UniProt P14779, 2-1049 with the stated changes: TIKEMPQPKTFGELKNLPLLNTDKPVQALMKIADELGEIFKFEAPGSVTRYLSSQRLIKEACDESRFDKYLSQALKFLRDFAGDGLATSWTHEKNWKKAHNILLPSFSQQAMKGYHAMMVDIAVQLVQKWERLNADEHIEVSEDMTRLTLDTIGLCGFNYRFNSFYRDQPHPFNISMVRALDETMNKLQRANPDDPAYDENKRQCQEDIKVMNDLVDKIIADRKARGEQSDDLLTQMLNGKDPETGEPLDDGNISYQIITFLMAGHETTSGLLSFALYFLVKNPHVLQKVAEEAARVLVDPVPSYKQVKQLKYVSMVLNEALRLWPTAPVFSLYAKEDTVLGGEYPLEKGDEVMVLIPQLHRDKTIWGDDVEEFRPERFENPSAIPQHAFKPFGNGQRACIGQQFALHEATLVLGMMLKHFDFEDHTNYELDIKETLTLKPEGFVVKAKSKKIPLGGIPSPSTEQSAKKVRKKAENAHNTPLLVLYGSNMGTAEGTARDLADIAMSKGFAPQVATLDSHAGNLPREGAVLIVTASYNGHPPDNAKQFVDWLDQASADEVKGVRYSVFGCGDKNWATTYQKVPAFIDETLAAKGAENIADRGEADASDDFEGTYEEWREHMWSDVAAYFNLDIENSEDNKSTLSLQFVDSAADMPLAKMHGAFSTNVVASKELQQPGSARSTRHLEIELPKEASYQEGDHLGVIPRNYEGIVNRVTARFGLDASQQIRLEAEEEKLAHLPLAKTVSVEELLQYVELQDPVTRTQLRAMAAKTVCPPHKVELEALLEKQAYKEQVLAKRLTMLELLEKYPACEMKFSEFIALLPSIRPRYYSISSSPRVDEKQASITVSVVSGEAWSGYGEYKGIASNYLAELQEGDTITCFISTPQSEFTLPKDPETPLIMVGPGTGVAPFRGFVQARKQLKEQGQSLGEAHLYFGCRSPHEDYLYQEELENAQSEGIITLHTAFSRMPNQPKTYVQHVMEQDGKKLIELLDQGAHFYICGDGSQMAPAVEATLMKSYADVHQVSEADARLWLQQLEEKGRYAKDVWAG

Biological target: B1SYN (Priestia megaterium, UniProt P14779, A185T/A291V/A331V/E253G/F206C/F88A/G316S/H237Q/I175N/I264M/L354V/N71Y/P143S/R256S/R48S/S227R/T176I/V79L)
Assay: biochemical

`CC(C)c1ccc(C(C)C)c(S(=O)(=O)N=[N+]=[N-])c1` [azide 5, 2,5-diisopropylbenzenesulfonyl azide] showed a Kd of 1.5 µM.
